Assay results taken from ChEMBL document CHEMBL5532679, “Discovery and Characterization of RGH-122, a Potent, Selective, and Orally Bioavailable V1a Receptor Antagonist” (J Med Chem, 2024).
≈ marks a conversion by molar mass, not a printed value.

Protein sequences, listed by entry. Tags and fused reporters are not part of them.
UniProt P37288, whole entry: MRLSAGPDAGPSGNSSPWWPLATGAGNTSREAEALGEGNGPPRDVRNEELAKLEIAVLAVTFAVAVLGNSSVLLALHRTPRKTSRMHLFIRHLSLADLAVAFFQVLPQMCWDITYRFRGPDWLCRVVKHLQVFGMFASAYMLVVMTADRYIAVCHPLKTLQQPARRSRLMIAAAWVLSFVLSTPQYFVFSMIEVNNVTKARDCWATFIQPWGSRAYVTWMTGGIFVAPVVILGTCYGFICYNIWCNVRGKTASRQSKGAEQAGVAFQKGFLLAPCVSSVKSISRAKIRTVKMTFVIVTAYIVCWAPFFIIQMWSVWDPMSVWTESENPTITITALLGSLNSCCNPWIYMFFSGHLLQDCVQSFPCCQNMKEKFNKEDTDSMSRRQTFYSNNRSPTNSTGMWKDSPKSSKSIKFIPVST

What was measured:
in vitro [1] = settings: CD-1, mouse, liver microsomes
[2] = human, microsomes, 1 µM
in vitro [3] = settings: Wistar, rat, microsomes
in vitro [4] = settings: NMRI, mouse, microsomes
in vitro [5] = settings: human, Caco-2
in vitro [6] = settings: human, microsomes
animal or person [7] = settings: Mus musculus, NMRI, po, read-out: INH
animal or person [8] = settings: Mus musculus, NMRI, po, read-out: INH; remark: listed apart in the source
physchem [9] = assay: physchem
in vitro [10] = settings: NMRI, mouse, plasma
in vivo [11] = settings: dog, po, 10 mg/kg
physchem [12] = settings: buffer, pH 6.5
in vivo [13] = settings: Wistar, rat, po, 3 mg/kg
in vitro [14] = settings: guinea pig, hepatocytes
in vivo [15] = settings: female, dog, plasma, po, 3 mg/kg
in vivo [16] = settings: Wistar, rat, po, 1.5 mg/kg
in vitro [17] = settings: guinea pig, plasma
in vitro [18] = settings: Wistar, rat, plasma
in vivo [19] = settings: Wistar, rat, plasma, iv, 3 mg/kg
in vivo [20] = settings: Wistar, rat, plasma, po, 3 mg/kg
in vivo [21] = settings: Wistar, rat, brain, po, 3 mg/kg
in vitro [22] = settings: NMRI, mouse, hepatocytes
in vivo [23] = settings: Wistar, rat, plasma, iv, 3 mg/kg; remark: listed apart in the source
in vivo [24] = settings: Wistar, rat, po, 3 mg/kg; remark: listed apart in the source
in vivo [25] = settings: Wistar, rat, brain, po, 3 mg/kg; remark: listed apart in the source
in vitro [26] = settings: marmoset, hepatocytes
physchem [27] = settings: buffer, pH 7.4
in vivo [28] = settings: guinea pig, po, 10 mg/kg
in vivo [29] = settings: Wistar, rat, plasma, po, 3 mg/kg; remark: listed apart in the source
in vitro [30] = settings: Wistar, rat, hepatocytes
physchem [31] = settings: octanol/water
in vivo [32] = settings: male, dog, plasma, po, 3 mg/kg
in vitro [33] = settings: dog, plasma
in vivo [34] = settings: Wistar, rat, iv, 3 mg/kg
in vitro [35] = settings: beagle, dog, hepatocytes
in vivo [36] = settings: Wistar, rat, po, 300 mg/kg
in vivo [37] = settings: Wistar, rat, plasma, iv, 3 mg/kg; remark: listed apart in the source
in vivo [38] = settings: Wistar, rat, po, 1.5 mg/kg; remark: listed apart in the source
physchem [39] = settings: buffer, pH 2
in vivo [40] = settings: Wistar, rat, plasma, po, 3 mg/kg; remark: listed apart in the source
in vivo [41] = settings: Wistar, rat, plasma, po, 3 mg/kg; remark: listed apart in the source
physchem [42] = settings: buffer, pH 7.4; remark: listed apart in the source
in vivo [43] = settings: Wistar, rat, brain, po, 3 mg/kg; remark: listed apart in the source
in vitro [44] = settings: human, plasma
in vitro [45] = settings: human, hepatocytes
Vasopressin V1a receptor [46] = target: T1, Vasopressin V1a receptor (Homo sapiens, UniProt P37288)
Vasopressin V1a receptor [47] = target: T1, Vasopressin V1a receptor; remark: listed apart in the source

Structure (SMILES): Clc1ccc2c(c1)CC1(CCOCC1)Cc1nnc([C@H]3CC[C@H](Oc4ccccn4)CC3)n1-2
- microsomal CLint at 1 µM (in vitro [1]): 74 µL/min/mg
- CLH [2]: 57.6 mL/day/kg
- microsomal CLint at 1 µM (in vitro [3]): 60 µL/min/mg

Structure (SMILES): OC[C@H]1Cc2cc(Cl)ccc2-n2c(nnc2[C@H]2CC[C@H](Oc3ccccn3)CC2)C1
- CLH [2]: 1.4 mL/day/kg
- microsomal CLint at 1 µM (in vitro [4]): 13 µL/min/mg
- microsomal CLint at 1 µM (in vitro [3]): 43 µL/min/mg
- Papp A→B at 10 µM (in vitro [5]): 28 ×10⁻⁶ cm/s

Structure (SMILES): FC[C@@H]1Cc2cc(Cl)ccc2-n2c(nnc2[C@H]2CC[C@H](Oc3ccccn3)CC2)C1
- microsomal CLint at 1 µM (in vitro [1]): 38 µL/min/mg
- CLH [2]: 2.9 mL/day/kg
- microsomal CLint at 1 µM (in vitro [3]): 78 µL/min/mg
- Papp A→B at 10 µM (in vitro [5]): 34 ×10⁻⁶ cm/s

Structure (SMILES): CC(C)N[C@H]1Cc2cc(Cl)ccc2-n2c(nnc2[C@H]2CC[C@H](Oc3ccccn3)CC2)C1
- microsomal CLint at 1 µM (in vitro [4]): 140 µL/min/mg
- microsomal CLint at 1 µM (in vitro [6]): 128 µL/min/mg
- microsomal CLint at 1 µM (in vitro [3]): 123 µL/min/mg
- Papp A→B at 10 µM (in vitro [5]): 17 ×10⁻⁶ cm/s

Structure (SMILES): OC[C@@H]1Cc2cc(Cl)ccc2-n2c(nnc2[C@H]2CC[C@H](Oc3ccccn3)CC2)C1
- CLH [2]: 2.9 mL/day/kg
- microsomal CLint at 1 µM (in vitro [4]): 6 µL/min/mg
- microsomal CLint at 1 µM (in vitro [3]): 43 µL/min/mg
- Papp A→B at 10 µM (in vitro [5]): 35 ×10⁻⁶ cm/s

Structure (SMILES): OCC1Cc2cc(Cl)ccc2-n2c(nnc2[C@H]2CC[C@H](Oc3ccccn3)CC2)C1 (some centres not stated)
- CLH [2]: 1.4 mL/day/kg
- microsomal CLint at 1 µM (in vitro [4]): 7 µL/min/mg
- microsomal CLint at 1 µM (in vitro [3]): 14 µL/min/mg
- Papp A→B at 10 µM (in vitro [5]): 22 ×10⁻⁶ cm/s

Structure (SMILES): CC(C)NC1Cc2cc(Cl)ccc2-n2c(nnc2[C@H]2CC[C@H](Oc3ccccn3)CC2)C1 (mixture of isomers)
- microsomal CLint at 1 µM (in vitro [4]): 41 µL/min/mg
- microsomal CLint at 1 µM (in vitro [6]): 40 µL/min/mg
- inhibition in vivo at 10 mg/kg (animal or person [7]): 118%
- microsomal CLint at 1 µM (in vitro [3]): 35 µL/min/mg
- inhibition in vivo at 3 mg/kg (animal or person [8]): 80%
- Papp A→B at 10 µM (in vitro [5]): 13.3 ×10⁻⁶ cm/s

Structure (SMILES): CC(C)N[C@@H]1Cc2cc(Cl)ccc2-n2c(nnc2[C@H]2CC[C@H](Oc3ccccn3)CC2)C1
- microsomal CLint at 1 µM (in vitro [4]): 24 µL/min/mg
- microsomal CLint at 1 µM (in vitro [6]): 28 µL/min/mg
- microsomal CLint at 1 µM (in vitro [3]): 29 µL/min/mg
- inhibition in vivo at 3 mg/kg (animal or person [8]): 47%
- Papp A→B at 10 µM (in vitro [5]): 20 ×10⁻⁶ cm/s

Structure (SMILES): Clc1ccc2c(c1)CC1(Cc3nnc([C@H]4CC[C@H](Oc5ccccn5)CC4)n3-2)OCCO1
- microsomal CLint at 1 µM (in vitro [1]): 51 µL/min/mg
- pKa (physchem [9]): 3.6
- fraction unbound (in vitro [10]): 0.033
- Cmax (in vivo [11]): 132 ng/mL
- logD (physchem [12]): 3.86
- AUC(0-t) (in vivo [13]): 0.757 µM·h
- hepatocyte CLint (in vitro [14]): 12 µL/min/1e6 cells
- bioavailability (in vivo [15]): 15%
- AUC (in vivo [16]): 9.57 ng·h/mL
- CLH [2]: 18.7 mL/day/kg
- fraction unbound (in vitro [17]): 0.107
- fraction unbound (in vitro [18]): 0.022
- clearance (in vivo [19]): 52800 mL/day/kg
- bioavailability (in vivo [20]): 25%
- Cmax (in vivo [21]): 135 nM
- inhibition in vivo at 10 mg/kg (animal or person [7]): ≥ 70%
- hepatocyte CLint (in vitro [22]): 17 µL/min/1e6 cells
- half-life (in vivo [23]): 38.4 min
- AUC(0-t) (in vivo [24]): 0.148 µM·h
- half-life (in vivo [25]): 81.6 min
- hepatocyte CLint (in vitro [26]): 26 µL/min/1e6 cells
- solubility thermodynamic (physchem [27]): 35 µM (≈ 15.9 µg/mL)
- Cmax (in vivo [28]): 107 ng/mL
- half-life (in vivo [29]): 58.2 min
- hepatocyte CLint (in vitro [30]): 29 µL/min/1e6 cells
- logP (physchem [31]): 3.86
- bioavailability (in vivo [32]): 13%
- fraction unbound (in vitro [33]): 0.041
- AUC(0-t) (in vivo [34]): 3.05 µM·h
- hepatocyte CLint (in vitro [35]): 6 µL/min/1e6 cells
- AUC (in vivo [36]): 11100 ng·h/mL
- Vd (in vivo [37]): 2 L/kg
- Cmax (in vivo [38]): 5.9 ng/mL
- logD (physchem [39]): 1.5
- Cmax (in vivo [40]): 638 nM
- Tmax (in vivo [41]): 30 min
- logD (physchem [42]): 3.86
- Tmax (in vivo [43]): 30 min
- fraction unbound (in vitro [44]): 0.053
- hepatocyte CLint (in vitro [45]): 3 µL/min/1e6 cells
- Papp A→B at 10 µM (in vitro [5]): 63 ×10⁻⁶ cm/s

Structure (SMILES): FC[C@H]1Cc2cc(Cl)ccc2-n2c(nnc2[C@H]2CC[C@H](Oc3ccccn3)CC2)C1
- microsomal CLint at 1 µM (in vitro [1]): 25 µL/min/mg
- CLH [2]: 4.3 mL/day/kg
- microsomal CLint at 1 µM (in vitro [3]): 37 µL/min/mg
- Papp A→B at 10 µM (in vitro [5]): 35 ×10⁻⁶ cm/s

Structure (SMILES): Clc1ccc2c(c1)CC1(Cc3nnc([C@H]4CC[C@@H](Oc5ccccn5)CC4)n3-2)OCCO1
- microsomal CLint at 1 µM (in vitro [1]): 44 µL/min/mg
- IC50 (Vasopressin V1a receptor [46]): 2.4 nM
- CLH [2]: 7.2 mL/day/kg
- inhibition in vivo at 10 mg/kg (animal or person [7]): 55%
- Ki (Vasopressin V1a receptor [47]): 0.3 nM
- microsomal CLint at 1 µM (in vitro [3]): 43 µL/min/mg
- inhibition in vivo at 3 mg/kg (animal or person [8]): 34%
- Papp A→B at 10 µM (in vitro [5]): 50 ×10⁻⁶ cm/s
